# Experimental data as given in paper PMC8041433 (Environmental Health Perspectives, 2021).
# Amino acid sequences for entries named in this document (tags omitted). Residues count along the entry.
# UniProt P22303, 32-614 limits assumed: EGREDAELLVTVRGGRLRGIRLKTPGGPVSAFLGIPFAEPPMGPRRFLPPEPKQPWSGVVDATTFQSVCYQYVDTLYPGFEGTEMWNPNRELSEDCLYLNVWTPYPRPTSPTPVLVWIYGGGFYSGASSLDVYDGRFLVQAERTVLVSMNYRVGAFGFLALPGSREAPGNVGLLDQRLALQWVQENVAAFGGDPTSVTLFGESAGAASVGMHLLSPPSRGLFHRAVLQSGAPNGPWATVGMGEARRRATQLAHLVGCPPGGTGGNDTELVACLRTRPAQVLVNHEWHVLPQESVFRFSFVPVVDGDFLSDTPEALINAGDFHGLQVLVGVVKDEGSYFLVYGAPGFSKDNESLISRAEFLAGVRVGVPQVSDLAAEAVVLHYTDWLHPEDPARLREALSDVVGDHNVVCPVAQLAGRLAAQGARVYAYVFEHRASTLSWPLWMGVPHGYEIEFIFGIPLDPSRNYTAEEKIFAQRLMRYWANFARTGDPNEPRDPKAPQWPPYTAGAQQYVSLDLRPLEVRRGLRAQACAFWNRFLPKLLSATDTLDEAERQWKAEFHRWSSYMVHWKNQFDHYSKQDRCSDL
# Several values for one entry are separate records, joined by “and”; a condition that tells them apart may be missing. Equal values may be shown once. Read-outs that look alike come from different tables or passages of the source. Only a part of the results on these compounds is given; other tests are left out.
# Assays:
# [1] = target: T1, recombinant human AChE (Homo sapiens, UniProt P22303); assay: Enzyme-based AChE inhibition assay (without microsomes), colorimetric qHTS; format: biochemical; conditions: primary screening; protocol tox21-ache-p5: enzyme-based AChE assay
# [2] = target: T1, recombinant human AChE; conditions: primary screening; protocol tox21-ms-ache-p2: enzyme-based AChE assay with human microsomes
# [3] = target: AChE in SH-SY5Y cells (Homo sapiens, UniProt P22303); assay: Cell-based AChE inhibition assay in SH-SY5Y cells, monolayer; conditions: primary screening, protocol tox21-ache-p3: cell-based AChE assay
structure (smiles),measurement,setting,value
Cc1ccc([N+](=O)[O-])c([N+](=O)[O-])c1,CC-v2 (curve classes),[1],4
same,Efficacy,[1],0
same,CC-v2 (curve classes),[2],4
same,Efficacy,[2],0
same,CC-v2 (curve classes),[3],-2.1
same,IC50,[3]; null: inactive,39.9 µM and 40.8 µM and 36.3 µM
